In PubChem BioAssay AID1276 (Columbia University Molecular Screening Center, 2008) one finds activation data, which are given here for 25 compounds.

SMILES strings stand for the structures. The entries are a selection whose mix differs from that of the whole data set. Calls of active or inactive are those of the source.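 Rule for the calls: active = activation above a set limit, based on mean plus 3 SD of controls (cut at about 140% in these data); inconclusive = one replicate above the limit, the other below; inactive = the rest.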

This assay in a line: activators of APP 5'UTR luciferase reporter, primary screen, SH-SY5Y cells (AID 1276). The note with it: SH-SY5Y APP 5'UTR luciferase reporter, luminescence; at 2 µM; hits give high values; zero percent = DMSO vehicle wells. For orientation: Reporter assays use an easily measured gene product as a stand-in for the process of interest.
Turning to `COc1ccc(NC2CCN(CCc3ccccc3)CC2)c(OC)c1`, the activation was inactive: -11.1%. In the case of `COc1ccc(C(=O)NCC2(N3CCCCC3)CCCCC2)c(OC)c1OC` it was inactive: -5.34%. Regarding `O=C(NCC1(N2CCOCC2)CCCCC1)c1cc2ccccc2o1`, the activation was inactive: -2.48%. Turning to `O=C(OC1CN2CCC1CC2)C1c2ccccc2Oc2ccccc21` (stereo not given), the activation was inactive: -3.19%. As for `CCOC(=O)N1CCC(Nc2ccc(OC)cc2)CC1`, the figure is inactive: 3%. In the case of `CC(C)c1ccc(NC2CCN(C(=O)OC(C)(C)C)CC2)cc1` it was inactive: 58.2%. As for `CN(C)c1cccc(C(=O)NCC2(N3CCCCC3)CCCCC2)c1`, the figure is inactive: -10.6%. Regarding `COc1ccc(CN(CCCl)CCCl)cc1Cl`, the activation was inactive: 25.7%.

With `CN1CCC(Nc2cccc(F)c2)CC1`, the activation is inactive: 2.61%. In the case of `N#CC1(Nc2ccccc2)CCN(CCc2ccccc2)CC1` it was inactive: 0.05%; in that of `O=C(NCC1(N2CCCCC2)CCCCC1)c1cccc([N+](=O)[O-])c1`, inactive: 4.07%. With `O=C(NCC1(N2CCOCC2)CCCCC1)c1cc(=O)[nH]c2ccccc12`, the activation was inactive: 13.2%. As for `COc1ccc(NC2CCN(C(=O)OC(C)(C)C)CC2)cc1`, the figure is inactive: 8.05%; as for `CN1CCN(CCOC(=O)C(O)(c2ccccc2)c2ccccc2)CC1`, inactive: -20.3%. As to `N#Cc1ccc(C(=O)NCC2(N3CCCCC3)CCCCC2)cc1`, the activation is inactive: -13.9%. In the case of `c1ccc(CN2CCC(Nc3ccccc3)CC2)cc1` it was inactive: 4.39%; in that of `COc1ccc(C(=O)NCC2(N3CCOCC3)CCCCC2)cc1OC`, inactive: -10.3%. For `N/C(=N\O)c1c(N)no[n+]1[O-]`, the activation was inactive: -5.24%. `O=C(OC1CN2CCC1CC2)C1c2ccccc2C=Cc2ccccc21` (stereo not given): the activation is inactive: -2.35%. `CCOc1ncccc1C(=O)NCC1(N2CCOCC2)CCCCC1`: the activation was inactive: -5.33%.

Take `CC(C)(C)OC(=O)N1CCC(Nc2ccccc2)CC1`: the activation was inactive: 9.51%. On to `COc1cc(OC)cc(C(=O)NCC2(N3CCOCC3)CCCCC2)c1`, for which the activation is inactive: -12.5%. As for `CCC(CO)(C(=O)OC1CN2CCC1CC2)c1ccccc1` (stereo not given), the figure is inactive: 3.64%; as for `CCN1CCC(Nc2cccc(F)c2)CC1`, inactive: -14.3%. Regarding `CN(C)c1ccc(C(=O)NCC2(N3CCCCC3)CCCCC2)cc1`, the activation was inactive: -7.46%.
